## Measured affinities in a library of Ab-95 light chain variants

From the AlphaSeq antibody data of Engelhart et al. 2022 (doi:10.1038/s41597-022-01779-4), copy in the FLAb collection.

The target is the same throughout: PDVDLGDISGINAS, from the HR2 region of SARS-CoV-2 spike.

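The starting antibody came from a phage panning campaign against this peptide. Variants in AAYL52 differ from the parent at up to three CDR positions; double and triple changes were sampled at random. AlphaSeq pools MATa yeast showing the antibodies with MATalpha yeast showing the peptide. After mating in shaken culture at 30 °C for 16 h, diploids were selected and their barcode pairs sequenced. A regression on co-assayed BCL2-family reference pairs converts the normalised counts of each replicate to an apparent Kd. Each pool was mated in three replicate cultures.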

Parent scFv Ab-95: VH joined to VL by a 15-residue (Gly4Ser)3 linker. Changes lie in the light chain CDRs alone.
VH: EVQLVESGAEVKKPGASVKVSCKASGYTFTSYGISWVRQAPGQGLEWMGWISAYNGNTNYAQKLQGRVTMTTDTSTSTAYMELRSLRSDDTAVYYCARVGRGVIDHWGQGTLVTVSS
VL: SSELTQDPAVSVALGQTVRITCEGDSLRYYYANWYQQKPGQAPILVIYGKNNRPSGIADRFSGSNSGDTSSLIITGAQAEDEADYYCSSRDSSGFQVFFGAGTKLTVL

Variants are written as CDR1, CDR2 and CDR3 of the light chain (limits as in the source). Parent: EGDSLRYYYAN, GKNNRPS, SSRDSSGFQVF.
Numbers give log10(Kd / nM), so 0 is 1 nM and 3 is 1 µM. Smaller is tighter.
"nd" marks a missing value. The strain was present, yet no cells mated with the target were sequenced in that replicate, which points to weak or no binding.
For reference, the parent read 2.31 as the reference entry and 2.25 as a member of this library.

Variant EGDSLRYTYAN, GKNNVPP, SSRDSSGFQVF showed 1.43, 1.29, 0.58 (controls 3 of 9).
Variant EGDSFRYYYAN, GKNNRPS, SSRDISGFQYF showed 2.97, 2.70, 3.91 (controls 2 of 9).
Variant EGDSLRYYWAN, GKNNRPS, SSRDSSGFQVF showed 2.82, 2.72, 2.66 (controls 1 of 9).
Variant EGDSLRIYYAN, GKNNNPS, SYRDSSGFQVF showed 4.22, 5.92, nd (controls 3 of 9).
Variant EGDSLRYYYAN, GKNNRHS, SSRDSSGFQVW showed 3.19, 2.57, 2.23 (controls 1 of 9).
Variant EGDSLMYYYAN, GKNCRPS, SSRDSSGFQVF showed nd, 3.49, nd (controls 2 of 9).
Variant EGDDLRYYYAN, RKNNRPS, SSRDSSLFQVF showed nd, 3.78, 4.50 (controls 2 of 9).
Variant CGDSLRYTYAN, GKNNRPS, SSNDSSGFQVF showed 2.58, 3.68, nd (controls 1 of 9).
Variant IGDSLRYYYAN, GKNNIPS, SSRDSSGFQKF showed 3.87, 3.77, 3.51 (controls 3 of 9).
Variant ERDSLRYYLAN, GKNNRPS, SSRDSSGFNVF showed 3.91, 3.51, nd (controls 5 of 9).
Variant EGDSLRYYYAN, GKNNRPS, ESRDSCCFQVF showed 2.62, 2.03, 2.14 (controls 5 of 9).
Variant EMDSLRYYYAN, GKNERPG, SSRDSSGFQVF showed 2.70, 2.38, 1.64 (controls 6 of 9).
Variant EGDSLRYYYAN, GKNNRPS, SSRDASGFQIT showed 3.66, 3.19, 2.86 (controls 3 of 9).
Variant EGDSLRYYYAN, GKNNRPS, SSRDSSYVQVV showed 2.51, 2.79, 2.91 (controls 5 of 9).
Variant VGDSLIYYYAN, GDNNRPS, SSRDSSGFQVF showed 2.76, 3.58, 2.75 (controls 1 of 9).
Variant EMDSLRYYYAN, GKNNRPS, SSRGSSCFQVF showed nd, nd, 4.19 (controls 1 of 9).
Variant EGMSLRYYYAN, GYNNRPS, SSRDSSGFQCF showed 2.71, nd, nd (controls 1 of 9).
Variant EGDSLRYYGAN, GKGNRPS, SIRDSSGFQVF showed nd, nd, nd (controls 2 of 9).
Variant EGKSLRYYYAN, GKNNRPS, SSRDSSAFQDF showed 2.06, 2.01, 1.88 (controls 3 of 9).
Variant EGDSMRYYYAN, GKNWRPS, SSRDSSGFQVF showed 3.55, 5.12, nd (controls 2 of 9).
Variant EGDSMRYYYAN, GKNNRPT, SSRDSSGFQVF showed 2.41, 3.25, 1.88 (controls 3 of 9).
Variant EGTSLRYYYAN, GKNNRPR, SSRDWSGFQVF showed 3.26, 4.02, nd (controls 6 of 9).
Variant EGVSLRYYYAN, GKNNRPS, MIRDSSGFQVF showed 3.20, nd, 2.49 (controls 1 of 9).
Variant EIDSLRYYYWN, GKNNRPS, SSRDSSGFQVF showed 4.20, 3.20, 4.61 (controls 3 of 9).
Variant EGDSVRYYYEN, GKNNRPS, SSRDSSGEQVF showed nd, 4.24, nd (controls 2 of 9).
Variant EGDSKRYYYWN, GKNNRPS, SSRDSFGFQVF showed nd, nd, nd (controls 5 of 9).
Variant EGDSLWYYYAN, GKNNRPS, ASRDSSGSQVF showed 3.65, nd, 3.91 (controls 3 of 9).
Variant EGDSLRYMYAN, QKNLRPS, SSRDSSGFQVF showed 2.46, 2.51, 1.31 (controls 2 of 9).
Variant WGHSLRYYYAN, GKNNRPS, SSRKSSGFQVF showed 4.16, nd, 3.95 (controls 4 of 9).
Variant EGDSLRYYYAN, YKNNRPS, SSRLSSGFSVF showed nd, nd, nd (controls 5 of 9).
Variant EGDSLVYYYAN, GKTNRPS, SSRDSSGFQRF showed nd, nd, nd (controls 0 of 9).
Variant EGFSLRYYYAN, AKNNRPS, PSRDSSGFQVF showed 3.79, nd, nd (controls 2 of 9).
Variant EVDSLRYYYAN, GKNNFPS, SSRDSSGFQVG showed 4.31, nd, nd (controls 3 of 9).
Variant EGDSWRYYYAN, GKNNSPS, SSRDSSGFTVF showed 3.35, nd, 4.23 (controls 4 of 9).
Variant EGDSLRYYYAN, IKENRPL, SSRDSSGFQVF showed nd, 3.91, 4.33 (controls 5 of 9).
Variant EGQTLRYYYAN, AKNNRPS, SSRDSSGFQVF showed nd, 4.54, nd (controls 1 of 9).
Variant ELDSLRYYYAN, GKNIRPS, SSRDSSGFWVF showed nd, nd, nd (controls 1 of 9).
Variant EGDSLRYYYAN, GKNCRPS, SSYDSSGAQVF showed 3.23, 2.78, 2.16 (controls 2 of 9).
Variant EGLSLRYPYAN, GKNNRPS, SSRDHSGFQVF showed 2.53, 2.54, 1.70 (controls 0 of 9).
Variant EGASLRYYYAN, GKNNRPS, PSRDSSGFQVF showed 2.31, 2.27, 1.86 (controls 6 of 9).
Variant EGHSLRYYYAN, GKNKRPS, SSRDSRGFQVF showed nd, 3.29, 3.27 (controls 1 of 9).
Variant EHDSLRYYFAN, GKNNRPS, SSRDSLGFQVF showed 3.39, 2.97, 3.41 (controls 3 of 9).
Variant EGDSCRNYYAN, GKNNRPS, SSRDSSGFNVF showed 2.15, 2.99, 2.55 (controls 5 of 9).

The opening 4 entries, copied out:

CDR-L1,CDR-L2,CDR-L3,"log10 Kd, replicates",control signals
EGDSLRYTYAN,GKNNVPP,SSRDSSGFQVF,"1.43, 1.29, 0.58",3 of 9
EGDSFRYYYAN,GKNNRPS,SSRDISGFQYF,"2.97, 2.70, 3.91",2 of 9
EGDSLRYYWAN,GKNNRPS,SSRDSSGFQVF,"2.82, 2.72, 2.66",1 of 9
EGDSLRIYYAN,GKNNNPS,SYRDSSGFQVF,"4.22, 5.92, nd",3 of 9

Three control strains display no target. For library AAYL52, 28% of the pairings with them gave a signal, with a median of 3.91 and one signal in twenty below 2.90, so weak values seen in few replicates may be background. The control count says in how many pairings with the empty strains this scFv gave a signal.